# Assay results: patent US4576625A, “Fertilizers containing urea with urease inhibitors” (Huls Aktiengesellschaft, priority 1983, dated 1986)
# Only a part of the results on these compounds is given; other tests are left out.
# Test: Critical relative humidity (water activity) of fertilizer solutions
# Type: physicochemical
# Details: 40% ammonium nitrate solution
substance,measurement,setting,value
ammonium nitrate,CRH value (critical relative humidity),10° C.,76.5 °
same,CRH value (critical relative humidity),20° C.,79.4%
same,CRH value (critical relative humidity),30° C.,76.7%
